This is a selection; strong and weak results do not stand in their true shares. Some structures show a salt or complex split into parts, the way the source records it. Active and inactive are the calls of the source. The call rests on the fitted dose curve; in most records, active means well fitted activation curve with a large enough effect; inconclusive means small, poorly fitted or top-dose-only effect; inactive means flat fitted curve, though single readings scatter.

This assay can be described thus: Quantitative High-Throughput Screen for Regulators of Epigenetic Control. Further: % of control where 0% means no effect; nearly all actives have a fitted effect of over 60% in size. As to conditions: murine LDR cells, GFP reporter derepression, 30 h; at 53.9 µM (top of the series). From the text: NIH Molecular Libraries Screening Centers Network [MLPCN] NIH Chemical Genomics Center [NCGC] MLSCN Grant: 1 X01 MH079860-01 Assay Provider: Elisabeth D. Martinez, University of Texas SW Medical Center NCGC Assay Overview: The Locus Derepression (LDR) assay detects the derepression or induction of a GFP reporter that is stably integrated in a genomic region of murine cells that is presumably silenced. Transcription of the GFP reporter is controlled by a CMV promoter, which normally is constitutively active. However, this cell line, termed LDR, was selected for lack of constitutive production of GFP. GFP production can be induced by incubating the cells with histone deacetylase or DNA methyltransferase inhibitors (Martinez et al., 2006). Compounds that derepress or induce this reporter locus are identified by enumerating GFP positive cells using a laser-scanning microplate cytometer (Auld et al., 2006). This assay was screened against the MLSMR earlier (AID 597; (Johnson et al., 2008) and has been rescreened here against the expanded collection.
NCGC Assay Protocol Summary: Three hundred LDR cells in 5 uL per well were dispensed into black, clear-bottom 1536-well plates. Twenty-three nL compound was transferred to the assay plate and cells were incubated 30 hours at 37 C. Medium was removed, cells were washed two times with PBS, and GFP-positive cells were enumerated as fluorescent objects between the sizes of 20 to 120 um width and depth using an Acumen Explorer. References Auld, DS, Johnson, RL, Zhang, YQ, Veith, H, Jadhav, A, Yasgar, A, Simeonov, A, Zheng, W, Martinez, ED, Westwick, JK, Austin, CP, Inglese, J (2006). Fluorescent protein-based cellular assays analyzed by laser-scanning microplate cytometry in 1536-well plate format. Methods Enzymol 414: 566-89. Johnson, RL, Huang, W, Jadhav, A, Austin, CP, Inglese, J, Martinez, ED (2008). A quantitative high-throughput screen identifies potential epigenetic modulators of gene expression. Anal Biochem 375: 237-48. Martinez, ED, Dull, AB, Beutler, JA, Hager, GL (2006). High-content fluorescence-based screening for epigenetic modulators. Methods Enzymol 414: 21-36.
For the compound `CCOc1ccc(C)cc1CN(CCCl)CCCl`, the GFP activation is inactive: -0.281%.

For the compound `O=C(NCC1(N2CCOCC2)CCCCC1)c1ccc(Cl)cc1`, the GFP activation was inactive: -1.61%. Next, `COc1ccc(NC2CCN(CCc3ccccc3)CC2)c(OC)c1`: inactive: -0.273%; `COc1ccccc1C(=O)NCC1(N2CCOCC2)CCCCC1`: inactive: 1.61%.

Consider `Cc1ccc(OCC(C)C)c(CN(CCCl)CCCl)c1`, for which the GFP activation is inactive: 0%. Next, `COc1ccc(C(=O)NCC2(N3CCCCC3)CCCCC2)c(OC)c1OC`: inactive: 3.61%. As for `O=C(NCC1(N2CCOCC2)CCCCC1)c1cc2ccccc2o1`, the figure is inactive: -4.21%; as for `CCOC(=O)N1CCC(Nc2ccc(OC)cc2)CC1`, inactive: -0.581%; as for `N#CC1(Nc2ccccc2)CCN(Cc2ccccc2)CC1`, inactive: 0.99%.

Turning to `O=C(OC1CN2CCC1CC2)C1c2ccccc2Oc2ccccc21` (configuration not stated), the GFP activation is inactive: 1.01%.

As for `CN(C)c1cccc(C(=O)NCC2(N3CCCCC3)CCCCC2)c1`, the GFP activation is inactive: -0.501%. As for `COc1ccc(CN(CCCl)CCCl)cc1Cl`, the figure is inactive: -0.0611%; as for `CC(C)c1ccc(NC2CCN(C(=O)OC(C)(C)C)CC2)cc1`, inactive: -0.292%; as for `COc1ccc2c(c1O)-c1c(O)c(OC)cc3c1[C@H](C2)[N+](C)(C)CC3.O=[N+]([O-])c1cc([N+](=O)[O-])c([O-])c([N+](=O)[O-])c1[O-]`, inactive: 0.433%. Next, `O=C(OC1CN2CCC1CC2)c1ccc([N+](=O)[O-])cc1` (configuration not stated): inactive: -1.33%. Consider `O=C(NCC1(N2CCOCC2)CCCCC1)c1ccccc1Br`, for which the GFP activation is inactive: -2.39%. Next, `CCCCOc1ccccc1C(=O)NCC1(N2CCOCC2)CCCCC1`: inactive: -1.61%; `CCOc1ccc(C(=O)NCC2(N3CCOCC3)CCCCC2)cc1`: inactive: -1.61%; `O=C(NCC1(N2CCCCC2)CCCCC1)c1cccc([N+](=O)[O-])c1`: inactive: -0.0598%. As for `N#CC1(Nc2ccccc2)CCN(CCc2ccccc2)CC1`, the figure is inactive: -1.43%; as for `CCCOc1cccc(C(=O)NCC2(N3CCOCC3)CCCCC2)c1`, inactive: -1.61%. Next, `O=[N+]([O-])c1cc([N+](=O)[O-])c(NCC2CCS(=O)(=O)C2)c([N+](=O)[O-])c1` (configuration not stated): inactive: -1.37%.

Turning to `CN1CCN(CCOC(=O)C(O)(c2ccccc2)c2ccccc2)CC1`, the GFP activation was inactive: 0.0534%. Next, `COc1ccc(NC2CCN(C(=O)OC(C)(C)C)CC2)cc1`: inactive: -5.26%. On to `O=C(NCC1(N2CCOCC2)CCCCC1)c1cc(=O)[nH]c2ccccc12`, for which the GFP activation is inactive: -8.96%.

As for `O=C(NCC1(N2CCOCC2)CCCCC1)c1ccc([N+](=O)[O-])cc1`, the GFP activation was inactive: -2.39%.

As to `N#Cc1ccc(C(=O)NCC2(N3CCCCC3)CCCCC2)cc1`, the GFP activation is inactive: 5.19%. As for `O=C(NCC1(N2CCOCC2)CCCCC1)c1ccccc1[N+](=O)[O-]`, the figure is inactive: 4.06%; as for `CCOC(=O)C(CC)C1=NC(C)(C)Cc2ccccc21.O=[N+]([O-])c1cc([N+](=O)[O-])c(O)c([N+](=O)[O-])c1` (configuration not stated), inactive: 0.524%. Next, `O=C(NCC1(N2CCOCC2)CCCCC1)c1ccccc1`: inactive: -1.61%; `c1ccc(CN2CCC(Nc3ccccc3)CC2)cc1`: inactive: 1.42%; `COc1ccc(C(=O)NCC2(N3CCOCC3)CCCCC2)cc1OC`: inactive: 0.0725%.

As for `N/C(=N\O)c1c(N)no[n+]1[O-]`, the GFP activation is inactive: -0.741%. In the case of `O=C(O)c1cccc(Nc2c([N+](=O)[O-])cc([N+](=O)[O-])cc2[N+](=O)[O-])c1`, the GFP activation was inactive: 1.08%. For the compound `O=C(OC1CN2CCC1CC2)C1c2ccccc2C=Cc2ccccc21` (configuration not stated), the GFP activation is inactive: -1.01%.

With `CCOc1ncccc1C(=O)NCC1(N2CCOCC2)CCCCC1`, the GFP activation was inactive: 0.952%. Next, `CC(C)(C)OC(=O)N1CCC(Nc2ccccc2)CC1`: inactive: 1.73%; `CCC(CO)(C(=O)OC1CN2CCC1CC2)c1ccccc1` (configuration not stated): inactive: 7.32%. In the case of `COc1cc(C(=O)NCC2(N3CCOCC3)CCCCC2)cc(OC)c1OC`, the GFP activation is inactive: -2.39%. As for `COc1cc(OC)cc(C(=O)NCC2(N3CCOCC3)CCCCC2)c1`, the figure is inactive: -1.5%; as for `CCCOc1ccc(C)cc1CN(CCCl)CCCl`, inactive: -0.222%; as for `CN(C)C1(CNC(=O)c2ccc(C(C)(C)C)cc2)CCCCC1`, inactive: -1.61%. As for `Fc1ccccc1NC1CCN(Cc2ccccc2)CC1`, the figure is inactive: 1.22%. As for `CCN1CCC(Nc2cccc(F)c2)CC1`, the GFP activation was inactive: 0.175%.

On to `CN(C)c1ccc(C(=O)NCC2(N3CCCCC3)CCCCC2)cc1`, for which the GFP activation is inactive: 2.19%. For `CC(C)(C)c1ccc(C(=O)NCC2(N3CCOCC3)CCCCC2)cc1`, the GFP activation was inactive: -3.23%.

Consider `Cc1ccccc1C(=O)NCC1(N(C)C)CCCCC1`, for which the GFP activation was inactive: 2.45%.

Values taken from PubChem BioAssay AID1865 (National Center for Advancing Translational Sciences (NCATS), 2009).
